Experimental data from paper PMC7697615, “Selective Interactions of O-Methylated Flavonoid Natural Products with Human Monoamine Oxidase-A and -B” (Molecules, 2020).

By UniProt entry, the sequences of proteins in these tests, tags left out.
UniProt P21397, whole entry: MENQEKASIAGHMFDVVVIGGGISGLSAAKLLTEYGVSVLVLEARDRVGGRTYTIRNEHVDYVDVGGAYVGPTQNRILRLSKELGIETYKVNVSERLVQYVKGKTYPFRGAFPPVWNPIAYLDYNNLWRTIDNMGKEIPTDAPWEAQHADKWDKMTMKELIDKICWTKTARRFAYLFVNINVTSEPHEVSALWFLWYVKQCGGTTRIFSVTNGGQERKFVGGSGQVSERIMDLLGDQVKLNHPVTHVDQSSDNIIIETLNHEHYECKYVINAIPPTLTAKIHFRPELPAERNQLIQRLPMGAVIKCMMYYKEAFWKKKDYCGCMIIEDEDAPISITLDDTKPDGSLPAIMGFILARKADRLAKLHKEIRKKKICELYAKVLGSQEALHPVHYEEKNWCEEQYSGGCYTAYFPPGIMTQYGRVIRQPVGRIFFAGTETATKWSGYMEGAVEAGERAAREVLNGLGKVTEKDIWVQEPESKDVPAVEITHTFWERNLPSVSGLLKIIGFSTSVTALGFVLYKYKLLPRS

Target: MAO-A (Homo sapiens, UniProt P21397)
Assay: Enzyme kinetics and mechanism study (Lineweaver-Burk), MAO-A
Type: biochemical
Design: purchased BD Biosciences (Bedford, MA, USA)
Details: kinetics and dialysis

Compound: C#CCN(C)CCCOc1ccc(Cl)cc1Cl [Clorgyline, reference compound]
- Type of Inhibition, Monoamine Oxidase-A: Mixed/Irreversible
